Earlier results, collected in patent US20130344170A1, “POLYMORPHISMS PREDICTIVE OF ANTHRACYCLINE- INDUCED CARDIOTOXICITY” (THE UNIVERSITY OF BRITISH COLUMBIA, priority 2006, published 2013).

Tested on: human epidermal growth factor receptor 2 (HER2)-positive metastatic breast cancer

Q: Which “effectiveness in overall Phase III trial” value (overall Phase III trial population) does the source give for “HERCEPTIN: Genentech's HERCEPTIN, effective in HER2-positive metastatic breast cancer subjects” here?
A: not effective

Q: And the “effectiveness in genetic subset of subjects” value (subset of subjects with HER2-positive metastatic breast cancer)?
A: effective
